Results from patent publication US20100239652A1, “IMMUNOLIPOSOMES FOR TREATMENT OF CANCER” (UNIVERSITATSSPITAL BASEL, priority 2008, published 2010).

Legend:
[1] = system: EGFR-overexpressing solid tumors; assay: Phase I study CC1 of C225-ILs-dox, dose escalation; type: in vivo, human
[2] = system: HT-29 RDB; assay: Cytotoxicity study, MTT staining; type: cell-based, human
Method: (§1) Specific cytotoxicity of EGFR-targeted immunoliposomes containing doxorubicin was evaluated in target cells plated at a density of 8,000 cells per well in 96-well plates and allowed to grow overnight. Immunoliposomes or control treatments were applied for 2 h at 37° C., followed by washing with PBS and re-adding growth media. Cells were further incubated at 37 DC for 3 days and analyzed for cell viability using 3-(4,5-dimethylthiazol-2-yl)-2,5-diphenyl tetrazolium bromide (MTT) staining (41). For the cytotoxicity studies using the efflux pump inhibitor verapamil, this compound was added to the media at a concentration of 100 μM during the complete experiment.

[3] = system: HT-29 WT; assay: Cytotoxicity study, MTT staining; type: cell-based, human; conditions: Table 2
Method: as §1

[4] = system: MDA-MB-231 Vb100; assay: Cytotoxicity study, MTT staining; type: cell-based, human; conditions: highly drug resistant cell line
Method: as §1

[5] = system: MCF-7 cells; assay: Cytotoxicity study, MTT staining; type: cell-based; conditions: cells lack the EGF receptor, negative control; data not shown
Method: as §1

[6] = system: MDA-MB-231 wild type xenograft; assay: Tumor xenograft model, wild type; type: in vivo
Method: (§2) Efficacy for non-targeted liposomes versus anti-EGFR immunoliposomes were studied in the MDA-MB-231 wild type and resistant breast cancer xenograft tumor model. Swiss nu/nu mice (5-6 weeks; Charles River, France) were injected subcutaneously (s.c.) with EGFR-overexpressing MDA-MB-231 tumor cells (1×10^7 cells, wild type or resistant) into the back of the animal. […] Free drug was injected on the same schedule as liposomes or immunoliposomes intravenously at their MTD of 30 mg dox/kg for doxorubicin. In control groups, saline was administered intravenously at the same injection volume and schedule.
(§3) Tumor growth was monitored for a period of 55-100 days post tumor implantation. Mice were weighted and examined for toxicity three times a week. Tumor measurements were performed 2-3 times weekly using a caliper, and tumor volumes were calculated using the equation: (length × width^2)/2.
In the wild-type MDA-MB-231 xenograft model lacking mdr features, anti-EGFR immunoliposome-dox was administered i.v. at a total dose of 30 mg dox/kg divided into three weekly doses of 10 mg/kg. […] Control treatments included: saline; free doxorubicin and non-targeted liposomal doxorubicin (commercial pegylated liposomal doxorubicin; PLD) at the same dose and schedule as immunoliposomes.
In addition, a multivariate (rank) test was performed based on the sums of ranks for each mouse. […]

[7] = system: MDA-MB-231 Vb100 xenograft; assay: Tumor xenograft model, multi-drug resistant; type: in vivo; conditions: i.v. 10 mg doxorubicin/kg once weekly for 3 weeks, total 30 mg dox/kg; compared to saline
Method: as §2, §3
Comparators included saline, free doxorubicin and non-targeted liposomal doxorubicin (commercial pegylated liposomal doxorubicin; PLD) at the same dose and schedule as immunoliposomes.
In addition, a multivariate (rank) test was performed based on the sums of ranks for each mouse. Tumor size at each time point after last treatment was ranked across all mice for that day and the ranks were summed. The sum of the ranks was compared in each case for two treatments by a 2-sample t-test (42).

C225-ILs-dox
Grade ¾ Toxicity ([1]; 5 mg per m2 (as doxorubicin), r7 Pat.1 prostate 2 cycles, r8 Pat.2 pancreatic 2 cycles, r9 Pat.3 renal cell 2 cycles): none
Grade ¾ Toxicity ([1]; 10 mg per m2, r10 Pat.4 pancreatic 1 cycle, r11 Pat.5 esophageal 3 cycles, r12 Pat.6 colorectal 6 cycles): none
Grade ¾ Toxicity ([1]; 20 mg per m2, r13 Pat.7 colorectal 2 cycles, r14 Pat.8 pancreatic 1 cycle, r15 Pat.9 head and neck 4 cycles): none
Grade ¾ Toxicity ([1]; 30 mg per m2, r17 Pat.10 mesothelioma 6 cycles, r18 Pat.11 prostate 2 cycles, r19 Pat.12 pancreatic 2 cycles): none
Grade ¾ Toxicity ([1]; 40 mg per m2, r20 Pat.13 bladder 2 cycles, r21 Pat.14 bladder 6 cycles, r22 Pat.15 renal cell 1 cycle): none
Efficacy (best response) ([1]; 40 mg per m2, r20 Pat.13 bladder, r21 Pat.14 bladder, RECIST): SD (MR)
Grade ¾ Toxicity ([1]; 50 mg per m2, r23 Pat.16 hepatocellular 2 cycles, cell wraps: Neutropenia Grade 3 (r23-r24)): Neutropenia
skin toxicity ([1]; all 16 patients treated so far, 5-50 mg per m2): no skin toxicity
palmar plantar erythema ([1]; at even the higher doses): no palmar plantar erythema
signals of efficacy ([1]; even at the lowest dose used): clear signals of efficacy
drug-related toxic effects ([1]; up to a concentration of 50 mg/m^2): no or very little drug-related toxic effects
C225-ILs-dox vs. free dox ([2]; HT-29 RDB, Table 2): 19 - fold
superiority of immunoliposomal delivery over the free drug ([2]; ratio of IC50): 19 fold
C225-ILs-dox vs. free dox [3]: 1.2 - fold
greater cytotoxicity than free dox [4]: 216 fold
effects (cytotoxicity) [5]: no effects
tumor regrowth during follow-up ([6]; after day 77 until end of observation (day 100)): did not show growth activity
antitumor effect (tumor growth) ([6]; i.v. 10 mg doxorubicin/kg once weekly for 3 weeks, total 30 mg dox/kg, compared to saline): substantial tumor regressions
antitumor effect (tumor growth) [7]: substantial tumor regressions
